The values below come from patent US10807944B2, “HDAC inhibitor compounds and methods of treatment” (priority 2014, dated 2020).

Amino acid sequences for entries named in this document (tags omitted). A change or cut given only in a name is not applied to a line headed by its entry.
UniProt Q9UBN7: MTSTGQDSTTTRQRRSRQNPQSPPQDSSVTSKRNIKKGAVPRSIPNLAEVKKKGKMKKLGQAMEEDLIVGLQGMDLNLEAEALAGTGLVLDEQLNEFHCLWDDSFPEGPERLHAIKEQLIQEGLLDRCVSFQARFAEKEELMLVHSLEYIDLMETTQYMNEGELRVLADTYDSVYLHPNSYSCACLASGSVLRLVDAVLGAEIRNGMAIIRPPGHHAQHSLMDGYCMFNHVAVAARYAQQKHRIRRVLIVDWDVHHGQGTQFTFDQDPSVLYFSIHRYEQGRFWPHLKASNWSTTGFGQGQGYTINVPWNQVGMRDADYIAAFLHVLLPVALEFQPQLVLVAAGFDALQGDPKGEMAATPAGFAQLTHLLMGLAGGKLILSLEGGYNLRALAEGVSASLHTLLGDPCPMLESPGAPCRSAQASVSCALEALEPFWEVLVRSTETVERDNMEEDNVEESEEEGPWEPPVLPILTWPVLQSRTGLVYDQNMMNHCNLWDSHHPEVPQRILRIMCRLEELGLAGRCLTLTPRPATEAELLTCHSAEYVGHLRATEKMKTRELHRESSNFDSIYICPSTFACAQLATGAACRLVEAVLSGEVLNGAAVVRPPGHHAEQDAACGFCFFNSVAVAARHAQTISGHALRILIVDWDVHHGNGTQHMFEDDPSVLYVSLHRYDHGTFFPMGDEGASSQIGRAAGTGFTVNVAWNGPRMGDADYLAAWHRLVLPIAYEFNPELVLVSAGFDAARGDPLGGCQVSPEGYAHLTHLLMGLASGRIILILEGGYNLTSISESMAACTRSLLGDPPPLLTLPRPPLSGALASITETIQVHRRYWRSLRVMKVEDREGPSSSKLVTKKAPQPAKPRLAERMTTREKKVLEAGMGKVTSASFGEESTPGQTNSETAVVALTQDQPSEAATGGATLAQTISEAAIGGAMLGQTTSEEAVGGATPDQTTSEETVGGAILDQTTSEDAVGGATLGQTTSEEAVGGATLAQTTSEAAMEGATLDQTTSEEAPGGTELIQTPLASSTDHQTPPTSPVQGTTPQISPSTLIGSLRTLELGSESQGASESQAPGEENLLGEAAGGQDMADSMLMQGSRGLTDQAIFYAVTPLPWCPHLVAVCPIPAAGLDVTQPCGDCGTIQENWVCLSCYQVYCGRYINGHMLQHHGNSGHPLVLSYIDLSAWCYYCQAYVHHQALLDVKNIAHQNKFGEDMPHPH

The subject of assay [1] is MDA-MB-231 cells. To be noted: MDA-MB-231 monolayer scratch; UF010 at 1 μM.
Assay [2] concerns HCT116 cells. As to the kind of experiment: H3K18ac after 6 h pulse treatment and drug washout. The assay is classed as cell-based.
Assay [3] relates to Ad-MLP-Luc reporter in HCT116 cell line. In words: Ad-MLP-Luc luciferase reporter activation. To be noted: HCT116, dose-dependent. The assay is classed as cell-based. Background: Reporter assays use an easily measured gene product as a stand-in for the process of interest.
Assay [4] deals with MDA-MB-231 cells. As to the kind of experiment: Cell cycle analysis by FACS. To be noted: MDA-MB-231, 24 h. The assay is classed as cell-based. On the technique in general: Flow cytometry measures light scatter and fluorescence of single cells or particles in a stream.
Assay [5] concerns the target HDAC6 (Homo sapiens (Human), UniProt Q9UBN7). To be noted: Table 1, literature data; read-out: Inhibitory Potency (IC50) HDAC 6; cited from earlier work.

`O=C(CCCCCCC(=O)Nc1ccccc1)NO`: the “cell migration to the denuded areas” value in assay [1] was “did not significantly affect”. Besides, the “time at which histone acetylation (H3K18ac) was induced” value in assay [2] (HCT116, 6 h pulse exposure) is on record as ≤ 6 h. In addition, the “time up to which induced acetylation was maintained” value in assay [2] (HCT116, 6 h pulse then drug washout, time after drug addition) is listed as “quickly reduced to normal levels upon the drug removal”. The Ad-MLP-Luc reporter activity result in assay [3] was “dramatically increased”. Besides, the cell cycle effect result in assay [4] (1 μM) is “inhibited G1/S progression”; in assay [4] (10 μM) it was “induced a strong G2/M block”.
Consider `CC(=O)Nc1ccc(C(=O)Nc2cc(-c3cccs3)ccc2N)cc1` [Cpd60], for which the IC50 in assay [5] is > 30 µM.

For orientation: IC50 means the point on the concentration scale where inhibition reaches its midpoint.
